The source of these data is patent EP1439177B1, “Antiviral activity and resolution of 2-hydroxymethyl-5-(5-fluorocytosin-1-yl)-1,3-oxathiolane” (Emory University, priority 1991, dated 1992).

Molecules are shown by their SMILES. Several values for one entry are separate records, joined by “and”; a condition that tells them apart may be missing. Equal entries are not always repeated. Where two headings read alike, the source gives them in different places.

The conditions of data set [1]: individual monkeys RUh, RMi, RJd.
Data set [2] in a line: in vivo. The note with it: rhesus monkey, 33.3 mg/kg.

As to `Nc1nc(=O)n([C@@H]2CS[C@H](CO)O2)cc1F` (racemic) [(±)-FTC, (±)-β-D.L-2-hydroxymethyl-5-(5-fluorocytosin-1-yl)-1,3-oxathiolane], the t1/2 is 1.22 h and 1.47 h in data set [1] (I.V. 33.3 mg/kg); 1.08 h and 1.47 h in data set [1] (P.O. 33.3 mg/kg). Moreover, the half-life (in general, the time needed for the level to fall by half in the phase considered) in data set [2] (in vivo, iv, t1/2, I.V. 33.3 mg/kg, Mean of three monkeys) is 1.32 h; in data set [2] (in vivo, iv, t1/2, I.V. 33.3 mg/kg, individual monkeys RUh, RMi, RJd) it was 1.28 h; in data set [2] (in vivo, po, t1/2, P.O. 33.3 mg/kg, Mean of three monkeys), 1.38 h; in data set [2] (in vivo, po, t1/2, P.O. 33.3 mg/kg, individual monkeys RUh, RMi, RJd), 1.58 h; in data set [2] (plasma, plasma terminal half life, rhesus monkeys, mean of oral and I.V. administration), ~1.34 h.
